Results taken from ChEMBL document CHEMBL5576088, “Skin- and airway-deliverable TRPA1 inhibitor” (Bioorg Med Chem, 2024).
The source made the active and inactive calls. The rule behind the calls is not given here.

Amino acid sequences for entries named in this document (tags omitted).
UniProt Q9HBA0, whole entry: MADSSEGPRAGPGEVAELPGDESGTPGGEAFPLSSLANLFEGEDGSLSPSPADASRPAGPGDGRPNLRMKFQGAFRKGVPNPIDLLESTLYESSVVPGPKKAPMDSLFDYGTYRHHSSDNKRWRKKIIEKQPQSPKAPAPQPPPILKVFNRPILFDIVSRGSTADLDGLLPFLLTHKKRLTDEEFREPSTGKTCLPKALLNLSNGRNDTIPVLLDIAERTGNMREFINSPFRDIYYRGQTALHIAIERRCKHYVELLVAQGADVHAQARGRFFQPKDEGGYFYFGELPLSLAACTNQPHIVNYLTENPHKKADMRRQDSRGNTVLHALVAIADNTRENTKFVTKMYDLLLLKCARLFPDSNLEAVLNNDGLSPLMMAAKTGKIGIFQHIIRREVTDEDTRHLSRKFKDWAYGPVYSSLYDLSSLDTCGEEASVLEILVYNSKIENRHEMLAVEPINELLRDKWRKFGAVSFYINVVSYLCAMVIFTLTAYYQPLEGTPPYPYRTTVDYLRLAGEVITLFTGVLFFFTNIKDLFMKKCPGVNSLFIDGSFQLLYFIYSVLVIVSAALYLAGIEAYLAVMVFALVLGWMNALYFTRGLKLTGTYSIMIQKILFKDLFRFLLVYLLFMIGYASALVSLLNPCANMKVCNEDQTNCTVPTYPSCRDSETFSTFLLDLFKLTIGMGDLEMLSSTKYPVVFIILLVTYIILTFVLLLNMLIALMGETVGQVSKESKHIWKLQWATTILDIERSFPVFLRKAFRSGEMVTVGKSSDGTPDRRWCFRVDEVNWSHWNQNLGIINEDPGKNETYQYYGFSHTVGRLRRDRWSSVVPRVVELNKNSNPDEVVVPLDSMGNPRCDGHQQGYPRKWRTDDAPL

Columns and labels:
[1] = target: Transient receptor potential cation channel subfamily V member 4 (Homo sapiens) (UniProt Q9HBA0); assay: Antagonist activity at human TRPV4 expressed in HEK293 cells assessed as inhibition of intracellular Ca2+ flux by Fluo4-AM dye based fluorescence analysis; type: cell-based
[2] = target: T1, Transient receptor potential cation channel subfamily V member 3 (Homo sapiens) (UniProt Q8NET8); assay: Antagonist activity at human TRPV3 expressed in HEK293 cells assessed as inhibition of intracellular Ca2+ flux by Fluo4-AM dye based fluorescence analysis; type: cell-based
T1 sequence (whole entry): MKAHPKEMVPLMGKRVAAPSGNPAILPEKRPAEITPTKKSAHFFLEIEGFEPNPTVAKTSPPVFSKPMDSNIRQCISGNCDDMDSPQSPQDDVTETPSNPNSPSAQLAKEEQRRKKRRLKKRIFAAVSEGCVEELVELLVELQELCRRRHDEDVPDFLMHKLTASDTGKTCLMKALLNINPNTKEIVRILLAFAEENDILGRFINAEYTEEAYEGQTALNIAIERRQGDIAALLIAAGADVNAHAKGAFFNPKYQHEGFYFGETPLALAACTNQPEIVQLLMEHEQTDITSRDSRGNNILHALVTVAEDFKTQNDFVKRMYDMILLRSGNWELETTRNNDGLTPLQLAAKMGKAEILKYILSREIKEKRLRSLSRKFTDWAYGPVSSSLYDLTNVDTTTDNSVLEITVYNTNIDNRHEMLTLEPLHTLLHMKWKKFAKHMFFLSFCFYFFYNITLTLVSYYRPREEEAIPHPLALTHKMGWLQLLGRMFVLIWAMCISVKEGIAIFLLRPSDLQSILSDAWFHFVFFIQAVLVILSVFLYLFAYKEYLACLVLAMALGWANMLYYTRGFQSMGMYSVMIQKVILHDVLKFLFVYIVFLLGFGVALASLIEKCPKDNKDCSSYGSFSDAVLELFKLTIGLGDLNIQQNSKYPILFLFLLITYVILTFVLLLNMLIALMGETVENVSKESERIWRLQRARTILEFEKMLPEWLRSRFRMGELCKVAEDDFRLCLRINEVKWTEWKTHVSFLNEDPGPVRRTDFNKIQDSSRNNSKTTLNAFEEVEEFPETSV

## CC(CO)CC(C)c1ccccc1 (mixture of isomers)
[1]
  Activity: inactive
[2]
  Activity: inactive
